The assay has as its system lung cancer cells of the Egfr gene mutation-positive lung cancer-carrying mouse (C57BL/6/EgfrdelE748-A752). Description: Experiment 1: subcutaneous tumor model, Gefitinib in combination with intratumoral Ad-SGE-REIC. Further details: species or system mouse (C57BL/6J). Conditions: in vivo. How it is done: Full-length complementary DNA of the human REIC/Dkk-3 gene was integrated into a cosmid vector pAxCAwt, and the vector was then transferred into an adenovirus vector in accordance with the COS-TPC method (Takara Bio, Shiga, Japan). Subsequently, 3 enhancers; i.e., hTERT, SV40, and CMV, were added to a site downstream of the poly A sequence of the inserted REIC/Dkk-3 gene to obtain an adenovirus vector comprising the REIC/Dkk-3 gene introduced thereinto (Ad-REIC). As a control vector, an adenovirus vector comprising the LacZ gene introduced thereinto (Ad-LacZ) was used.
A subcutaneous tumor model was prepared by transplanting lung cancer cells of the Egfr gene mutation-positive lung cancer-carrying mouse (C57BL/6/EgfrdelE748-A752) (Ohash K. et al., Cancer Sci., 99, 1747, 2008) subcutaneously into both back regions of C57BL/6J (Higo, H. et al., Lung Cancer., 136, 86, 2019). When the tumor volume reached approximately 100 to 150 mm^3, the four experiments described below were performed (FIG. 1).
Gefitinib (50 mg/kg/day) was administered orally for consecutive 14 days, Ad-SGE-REIC* (1.0 × 10^9 ifu/day, days 1, 4, 7, 15, and 18) was selectively administered intratumorally on one side, and anti-tumor effects were evaluated (FIG. 1A). […]

Take `COc1cc2ncnc(Nc3ccc(F)c(Cl)c3)c2cc1OCCCN1CCOCC1` [Gefitinib]: the “growth of tumors on the both sides” value is recorded as “suppressed” and the “tumor regrowth upon termination of administration” value is given as “tumor regrowth was observed”.

These data come from US20230310653A1, “THERAPEUTIC AGENT FOR EGFR GENE MUTATION-POSITIVE LUNG CANCER COMPRISING REIC/Dkk-3 GENE” (Momotaro-Gene Inc., priority 2020, published 2023).
